24 compounds from PubChem BioAssay AID540275 (National Center for Advancing Translational Sciences (NCATS), 2011) can be followed below.

Chains of the proteins cited; added tags and fusions are not shown.
UniProt Q8NER1, whole entry: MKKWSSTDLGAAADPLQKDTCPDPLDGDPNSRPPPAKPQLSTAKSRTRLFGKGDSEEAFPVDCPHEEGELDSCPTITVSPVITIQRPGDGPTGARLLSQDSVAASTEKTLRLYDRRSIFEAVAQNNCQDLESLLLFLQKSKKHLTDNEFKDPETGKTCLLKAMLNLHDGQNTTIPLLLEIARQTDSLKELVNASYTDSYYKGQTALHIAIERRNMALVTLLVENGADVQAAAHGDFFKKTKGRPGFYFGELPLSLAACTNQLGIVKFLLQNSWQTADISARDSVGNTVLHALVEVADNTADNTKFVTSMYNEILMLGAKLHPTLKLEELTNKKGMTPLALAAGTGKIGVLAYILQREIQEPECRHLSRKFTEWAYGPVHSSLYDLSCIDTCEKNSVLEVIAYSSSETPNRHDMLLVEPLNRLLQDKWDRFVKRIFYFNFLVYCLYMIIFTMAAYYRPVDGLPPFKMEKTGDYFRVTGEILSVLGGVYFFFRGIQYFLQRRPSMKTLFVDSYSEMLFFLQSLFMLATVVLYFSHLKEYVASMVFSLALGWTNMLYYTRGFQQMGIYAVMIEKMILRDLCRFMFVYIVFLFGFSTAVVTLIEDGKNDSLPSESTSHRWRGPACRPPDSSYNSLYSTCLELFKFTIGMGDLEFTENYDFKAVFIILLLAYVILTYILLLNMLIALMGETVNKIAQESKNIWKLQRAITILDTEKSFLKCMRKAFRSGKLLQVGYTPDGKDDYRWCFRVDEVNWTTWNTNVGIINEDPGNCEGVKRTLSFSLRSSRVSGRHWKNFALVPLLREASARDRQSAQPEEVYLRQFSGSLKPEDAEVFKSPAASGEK

Each structure is given as a SMILES string. The list shows a part of the results, in another mix than the full data. Some results for these compounds are left out of this collection, so the calls shown say nothing about other tests. Inconclusive results are not listed. Activity calls are given as the source filed them. Rule as the data show it: active = activation above about 80%; inconclusive = between about 30% and that limit; inactive = weaker than that.

The target in the assay is Transient receptor potential cation channel subfamily V member 1 (Homo sapiens) (UniProt Q8NER1). Description: HTS Assay for Compounds that Act as Agonists of the Vanilloid Receptor 1. Also: 0% is about no effect. The note with it: TRPV1-expressing cells, Fluo-8 calcium influx, agonist mode; at 8.33 µM; stronger effect = higher value. The text has this: The transient receptor potential ion channel, family V, number 1, (TRPV1) is one of the most important molecular transducers of painful stimuli and a potential target for analgesic drug development. Although recent clinical trials with orthosteric antagonists have not produced a successful drug because of a hyperthermia side effect and their tendency to block thermal noxious pain, this ion channel is undeniably well placed in the pain pathway, and the idea of blocking pain signals before they enter the CNS is an excellent concept and of proven efficacy when TRPV1 agonists are used. We propose a new approach involving allosteric modulation to impose an activity-dependent constraint within the context of inflammation and tissue damage that would alter the responsiveness of the channel in a way that an orthosteric vanilloid antagonist cannot achieve. We believe that the allosteric modulator approach has not been explored for this target. The main goal of this proposal is to identify additional, new, potent allosteric modulators of TRPV1 that can be used to investigate TRPV1 function. Our recent report provides evidence of proof of concept, but the compounds are just at the edge of utility in terms of potency. […] The question of whether they can be used as analgesic agents is complex, but if suitable compounds are identified then testing for analgesic properties will be conducted. NIH Chemical Genomics Center [NCGC] NIH Molecular Libraries Probe Centers Network [MLPCN] MLPCN Grant: MH089480-1A1 Assay Submitter (PI): Michael Iadarola, National Institute of Dental and Cranofacial Research
Upon TRPV1 activation in TRPV1 cells, the channel opens and extracellular cations flow through the channel into the cytosol. A calcium binding dye (Fluo-8) becomes fluorescent when bound to calcium. This dye is pre-loaded into cells and is used as a marker for calcium influx. The amount of accumulated calcium is precisely quantified using the FDSS kinetic reader and the calcium dye. For the HTS assay, freshly prepared cells are plated at a density of 2000/well in 3 ul medium in 1536-well plates and cultured overnight at 35.5C. Cells will be loaded with 1 ul of the homogeneous calcium dye (ABD Bioquest) at room temperature for 40 to 90 minutes. Plates will be loaded into the FDSS kinetic reader and a 1 sec / cycle for 10 second baseline signal will be measured. Compound library will then be added with a pintool at 23 nl and measured kinetically for 3 minutes. This portion of the read is considered the agonist portion of the screen. Following the 3 minutes of incubation, an on board pipettor will deliver 1 ul of capsaicin for a final concentration equal to the EC20. Signal will be measured kinetically for an additional 2 minutes. This portion of the read is considered the allosteric enhancer portion of the screen. The FDSS reader has a standard filter set capable of measuring calcium bound Fluo-8 (ex=480 and em=520 nm).
Regarding `COc1ccc(Br)c(C(=O)NCC2(N3CCCCC3)CCCCC2)c1`, the activation is inactive: 5.62%.

In the case of `CC(C)Oc1ccc(C(=O)NCC2(N(C)C)CCCCC2)cc1`, the activation is inactive: -2.6%.

On to `CN(C)c1cccc(C(=O)NCC2(N(C)C)CCCCC2)c1`, for which the activation was inactive: 1.39%. Next, `O=C(OC1CN2CCC1CC2)C(CO)(c1ccccc1)c1ccccc1` (centres undefined): inactive: 2.46%; `COc1ccc(Cl)cc1C(=O)NCC1(N(C)C)CCCCC1`: inactive: 2.11%. The result for `COc1cccc(C(=O)NCC2(N3CCCCC3)CCCCC2)c1` reads inactive: 4.94%. As to `O=C(NCC1(N2CCCCC2)CCCCC1)c1cccc(Cl)c1`, the activation was inactive: 0.446%.

Turning to `CN(C)C1(CNC(=O)c2ccc(Br)cc2)CCCCC1`, the activation was inactive: 18.9%.

`COc1cc(C(=O)NCC2(N(C)C)CCCCC2)c([N+](=O)[O-])cc1OC`: the activation is inactive: -0.155%.

With `O=C(NCC1(N2CCCCC2)CCCCC1)c1cc(F)c(F)cc1Cl`, the activation was inactive: -4.25%.

Take `C=CCN1CCN(CCOC(=O)C(O)(c2ccccc2)c2ccccc2)CC1`: the activation is inactive: -0.713%. The result for `COc1ccc(C(=O)NCC2(N(C)C)CCCCC2)cc1` reads inactive: -1.69%; that for `O=C(NCC1(N2CCCCC2)CCCCC1)c1cccc(Br)c1`, inactive: 1.56%; that for `CCN1CCCC(OC(=O)C2(O)c3ccccc3C=Cc3ccccc32)C1` (centres undefined), inactive: 0.772%. The result for `Cc1cc(C(=O)NCC2(N3CCCCC3)CCCCC2)ccc1[N+](=O)[O-]` reads inactive: -1.05%; that for `CN(C)c1ccc(C(=O)NCC2(N(C)C)CCCCC2)cc1`, inactive: 0.219%; that for `CN(C)C1CCCC1OC(=O)C(O)(c1ccccc1)c1ccccc1` (centres undefined), inactive: -4.83%. The result for `Cc1ccccc1C(=O)NCC1(N2CCCCC2)CCCCC1` reads inactive: 1.2%; that for `COc1cc(SC)ccc1C(=O)NCC1(N(C)C)CCCCC1`, inactive: -4.35%; that for `CCN(CC)CC(C)C(C)OC(=O)C(O)(c1ccccc1)c1ccccc1` (centres undefined), inactive: 2.37%. In the case of `CC(C)N1C(=O)CC2(CCN(CCOC(=O)C(O)(c3ccccc3)c3ccccc3)CC2)C1=O`, the activation was inactive: 2.36%. Next, `Cc1ccc(C(=O)NCC2(N3CCCCC3)CCCCC2)cc1`: inactive: 0.491%. Next, `O=C(NCC1(N2CCCCC2)CCCCC1)c1cc([N+](=O)[O-])ccc1Cl`: inactive: 1.05%; `CN1[C@@H]2CC[C@H]1CC(OC(=O)C(O)(c1ccccc1)c1ccccc1)C2` (some centres undefined): inactive: -1.41%.
